# Literature values in publication PMC8955485, “Journey on VX-809-Based Hybrid Derivatives towards Drug-like F508del-CFTR Correctors: From Molecular Modeling to Chemical Synthesis and Biological Assays” (Pharmaceuticals, 2022).
# Sequences of proteins named here, by UniProt entry; tags and fusion partners are left off. A line that says so, or that is headed by a name, gives the form on record, which may keep a tag or linker.
# UniProt P13569, with tags, fused parts or gaps DEL508-508: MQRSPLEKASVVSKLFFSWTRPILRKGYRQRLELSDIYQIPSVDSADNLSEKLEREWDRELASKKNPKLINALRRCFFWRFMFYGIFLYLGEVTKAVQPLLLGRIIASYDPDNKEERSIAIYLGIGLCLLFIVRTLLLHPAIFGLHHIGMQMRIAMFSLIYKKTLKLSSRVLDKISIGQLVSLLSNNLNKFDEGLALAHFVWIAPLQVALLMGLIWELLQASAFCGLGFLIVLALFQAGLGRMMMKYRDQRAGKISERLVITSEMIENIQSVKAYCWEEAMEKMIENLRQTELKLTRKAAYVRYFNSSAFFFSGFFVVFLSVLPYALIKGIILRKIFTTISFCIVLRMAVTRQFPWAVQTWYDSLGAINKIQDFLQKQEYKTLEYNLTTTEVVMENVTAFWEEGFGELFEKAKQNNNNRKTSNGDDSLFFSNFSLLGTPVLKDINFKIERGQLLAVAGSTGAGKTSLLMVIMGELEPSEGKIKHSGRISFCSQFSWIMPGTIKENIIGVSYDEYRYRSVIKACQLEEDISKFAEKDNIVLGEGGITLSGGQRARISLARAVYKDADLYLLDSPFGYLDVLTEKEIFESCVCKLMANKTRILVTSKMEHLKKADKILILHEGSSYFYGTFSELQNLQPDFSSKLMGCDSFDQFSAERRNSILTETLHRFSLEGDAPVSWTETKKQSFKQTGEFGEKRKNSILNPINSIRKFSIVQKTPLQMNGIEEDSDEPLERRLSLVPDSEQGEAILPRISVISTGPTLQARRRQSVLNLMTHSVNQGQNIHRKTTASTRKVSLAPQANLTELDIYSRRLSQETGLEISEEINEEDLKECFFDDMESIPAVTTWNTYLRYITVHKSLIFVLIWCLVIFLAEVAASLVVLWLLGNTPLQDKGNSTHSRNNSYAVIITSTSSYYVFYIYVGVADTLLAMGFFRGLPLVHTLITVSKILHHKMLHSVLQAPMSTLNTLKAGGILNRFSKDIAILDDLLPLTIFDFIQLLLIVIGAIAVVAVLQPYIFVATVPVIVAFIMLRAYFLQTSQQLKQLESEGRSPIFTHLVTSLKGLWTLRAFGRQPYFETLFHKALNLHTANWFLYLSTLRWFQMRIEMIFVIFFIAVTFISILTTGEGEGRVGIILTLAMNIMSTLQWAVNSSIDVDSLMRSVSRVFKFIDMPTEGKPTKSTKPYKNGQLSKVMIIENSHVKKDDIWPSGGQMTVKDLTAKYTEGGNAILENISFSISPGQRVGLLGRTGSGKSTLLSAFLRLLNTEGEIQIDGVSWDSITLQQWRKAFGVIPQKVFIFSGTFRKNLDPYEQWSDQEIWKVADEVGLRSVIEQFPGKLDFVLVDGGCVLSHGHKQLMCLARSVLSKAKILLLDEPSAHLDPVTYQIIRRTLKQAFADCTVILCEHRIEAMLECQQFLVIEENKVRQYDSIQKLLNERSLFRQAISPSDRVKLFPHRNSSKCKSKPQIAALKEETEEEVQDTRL
# Biological target: F508del-CFTR (Homo sapiens, UniProt P13569, DEL508-508)
# Design: expressed in transfected cells
# Settings: first series of hybrids, cited from earlier work
compound,measurement,setting,value
O=C(Nc1nc(-c2cccc(Cl)c2)cs1)C1(c2ccc3c(c2)OC(F)(F)O3)CC1 [Compound 6e],EC50,,4 µM
same,pEC50,from EC50 of ref 27,5.40 M
